This is an account of results in US4897426A, “Method for blocking calcium channels” (New York University, priority 1989, dated 1990).

SMILES strings stand for the structures.

Test [1] has as its system rat brain synaptic membrane vesicles. The note with it: 10^-1 M; cited from earlier work.
In test [2] the test system is low-threshold calcium channels (LTCC). Briefly: Intracellular recording of low-threshold calcium rebound spike in inferior olivary cells of brain slices (LTCC blockage). The class given is cell-based, guinea pig.

As for `CCCCO` [butanol], in test [1], the “Inhibition of calcium influxes” value is reported as “inhibited calcium influxes”.
As for `CCCCCO` [pentanol], the “Relative effectiveness vs butanol, LTCC inhibition” value in test [2] (FIG. 5, graphs E through H (pentanol 0.1% or 0.05%, butanol 0.25%), as observed, not adjusted for injected current) is on record as “more than five times”. Moreover, in test [2] (complete blockage of LTCC), the “Preferred highest molar concentration / operative range for substantial and total blockage of LTCC: To About” value is ~10^-7 M. For the same molecule, in test [2] (injected current 0.5 nA in alcohol-exposed cells, 0.25 nA in controls), the “Relative effectiveness vs butanol, taking injected current into account” value is given as “over ten times”. Moreover, the “Inhibition of LTCC compared with propanol” value in test [2] (pentanol at 5-fold lower concentration, FIG. 5, H with E) is reported as “more effective than propanol”.
